Results published in patent US7595313B2, “Nitric oxide donating diuretic compounds, compositions and methods of use” (NicOx, S.A., priority 2005, dated 2009).
Several values for one entry are separate records, joined by “and”; a condition that tells them apart may be missing. Equal entries are not always repeated.

Key:
Male Wistar rats = experiment: Determination of the diuresis (urine volume over 6 hours after oral dosing); assay type: in vivo, rat; details: p.o. 3 mg/kg in 0.5% Methocel, mean ± SEM
[1] = test system: contractions elicited by 100 nM angiotensin II in isolated rat aorta; experiment: Angiotensin II-induced contractions in rat aorta

Structure (SMILES)	Urine collected in 6 hours (mL) (3 mg/kg) (Male Wistar rats; n=6 or 7)	Urine collected in 6 hours (mL) (3 mg/kg) (Male Wistar rats; n=6 or 7, 3 mg/kg)	inhibition of angiotensin-II-induced contractions (in words) [1]	% INHIBITION of angiotensin II-induced contraction ([1]; test compound 1 × 10^−6 M)
NS(=O)(=O)c1cc2c(cc1Cl)N([N+](=O)[O-])CN(CC(CO[N+](=O)[O-])O[N+](=O)[O-])S2(=O)=O (stereo not shown)	3.3 ± 0.6 mL			
NS(=O)(=O)c1cc2c(cc1Cl)NCN(CCCC(CO[N+](=O)[O-])(CO[N+](=O)[O-])CO[N+](=O)[O-])S2(=O)=O		4.3 ± 0.6 mL and 4.1 ± 0.5 mL	significant inhibition	64%
